Experimental data: patent US20100247590A1, “Peptide-Based Systems For Delivery Of Cosmetic Agents” (JOHNSON & JOHNSON, priority 2009, published 2010)

Experiment: Visual color assessment of hair treated with peptide then streptavidin-coated iron oxide beads (sequential coloring)
Details: for color measurement (0-5 color scale): 500 nm particles

Substance: HCP5-GGSGPGSGG-HCP5-K [(HCP5)2-biotin]
- color scale score (0-5) (Table 16, streptavidin-coated iron oxide beads, sequential coloring method): 4
- color measurement (0-5 color scale) (Table 17, initial, before washing with water): 4
- color measurement (0-5 color scale) (Table 19, after 0.25% SLES wash): 2
